Ab-14 heavy chain CDR variants: yeast mating affinities

All variants were tested on one target, the spike HR2 peptide PDVDLGDISGINAS (SARS-CoV-2).

Ab-14 is the parent antibody, in scFv form: VH, then the linker GGGGSGGGGSGGGGS, then VL. The light chain is unchanged in all variants.
VH: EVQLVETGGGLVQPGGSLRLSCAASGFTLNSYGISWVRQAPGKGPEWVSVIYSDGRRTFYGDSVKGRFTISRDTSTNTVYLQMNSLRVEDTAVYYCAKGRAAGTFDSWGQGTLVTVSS
VL: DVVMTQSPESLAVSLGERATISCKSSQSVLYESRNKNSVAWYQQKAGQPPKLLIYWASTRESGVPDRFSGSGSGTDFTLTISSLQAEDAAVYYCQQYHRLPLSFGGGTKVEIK

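Phage display of a naive human antibody library on the peptide gave the parent. Variants in AAYL49 differ from the parent at up to three CDR positions; double and triple changes were sampled at random. The assay is AlphaSeq: two haploid yeast populations carry antibody and antigen on their surface. Mating (16 h, 30 °C) was followed by selection of diploids and sequencing of their barcodes. A regression on co-assayed BCL2-family reference pairs converts the normalised counts of each replicate to an apparent Kd. The assay was run in three technical replicates.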

Variants are written as CDR1, CDR2 and CDR3 of the heavy chain (limits as in the source). Parent: GFTLNSYGIS, VIYSDGRRTFYGDSVK, GRAAGTFDS. Each Kd is an estimate from the mating assay, the geometric mean of the replicates in which the pair was seen; lower is stronger. An entry "not detected" has no value in the source: the pair was not observed among the diploids in any replicate. This suggests poor binding but is not conclusive.

| CDR-H1 | CDR-H2 | CDR-H3 | Kd (apparent) | seen in | empty controls |
|---|---|---|---|---|---|
| GTTLNSYGIS | YIYSDGRRTFPGDSVK | GRAAGTFDS | 69 µM | 2 of 3 | 6 of 9 |
| GFTLNSYGQS | VIYVDGRRTFYGDSVK | GRAAGTTDS | 21 µM | 3 of 3 | 4 of 9 |
| VFTLNSYGIS | VLYSDGRRTCYGDSVK | GRAAGTFDS | not detected | 0 of 3 | 0 of 9 |
| GFTLNSMGIS | VPYSDGRRTFYGDSVK | TRAAGTFDS | 2.6 µM | 1 of 3 | 1 of 9 |
| GFTLNSYGIS | VIYSDGARTFYGDSNK | GRAASTFDS | 9.5 µM | 1 of 3 | 1 of 9 |
| GFTLCSYGIS | QIYSDGRRTWYGDSVK | GRAAGTFDS | not detected | 0 of 3 | 2 of 9 |
| GFTLNSYGIS | VIYSDGRVTFYGDSVK | GSAAGTFDH | not detected | 0 of 3 | 1 of 9 |
| GFKLNSYGIS | VIYSDGYRTFYTDSVK | GRAAGTFDS | 13 nM | 3 of 3 | 1 of 9 |
| GFTLNWYGIS | VIYSDGRRTFYGDSKK | GRAARTFDS | 30 µM | 1 of 3 | 2 of 9 |
| GFFLNSYGIL | VIYSDGRRTFYGDSVK | GRAAGTFPS | not detected | 0 of 3 | 1 of 9 |
| GFTLNSYGIS | VIRSSGRRTFYGDSVK | GRAAGTFDA | 8.1 µM | 2 of 3 | 3 of 9 |
| GFYLNSYGIS | VIYSDGRRGFYGDQVK | GRAAGTFDS | 630 µM | 1 of 3 | 0 of 9 |
| GFTLDSYGIS | VIYSDGRRTFYGDSVK | GRAHGTSDS | not detected | 0 of 3 | 0 of 9 |
| GFYYNSYGIS | VIYSDGRRTFYGDSLK | GRAAGTFDS | not detected | 0 of 3 | 1 of 9 |
| GSTLNSYGPS | VIYSDGRRFFYGDSVK | GRAAGTFDS | 680 nM | 1 of 3 | 0 of 9 |
| GFTLNSYGIS | VWYSDGRRTFYGDSVA | GRAAGTFDS | 73 µM | 2 of 3 | 1 of 9 |
| GFTLNSYGIS | VVYSDGRRTFYGDSVK | GRAAGTGDS | not detected | 0 of 3 | 1 of 9 |
| GFTLNSYGIS | VRYSDGRRGFYGWSVK | GRAAGTFDS | not detected | 0 of 3 | 0 of 9 |
| GKTLNSYRIS | VIYSDGRRTFYGDSTK | GRAAGTFDS | 11 µM | 1 of 3 | 2 of 9 |
| GFTLMSYGII | VIYSDGRRTFYGDSVK | GRAAGGFDS | not detected | 0 of 3 | 2 of 9 |
| GFTLNSYGIS | VIYKDGRRIFPGDSVK | GRAAGTFDS | 5.9 µM | 1 of 3 | 3 of 9 |
| GFTLPSYGIS | VIYSDQRYTFYGDSVK | GRAAGTFDS | 46 µM | 2 of 3 | 2 of 9 |
| GFTLNSYGIS | VIYSDGRRTQMGDSVK | GRAASTFDS | not detected | 0 of 3 | 1 of 9 |
| GFTLMSYGNS | VIYSDGRRTFYGDSVK | GRAAGTFDY | 78 µM | 1 of 3 | 2 of 9 |
| GFTLNSYGIS | VIYSDERRTFYGDSVK | GRAAGAFDA | not detected | 0 of 3 | 2 of 9 |
| GKTLNYYGIS | VIYSDGRRTFYGDSVK | GRAAGTLDS | 14 nM | 3 of 3 | 0 of 9 |
| GFTYNSYGIS | VIYSDGRRTFKGDSVK | GRAAGTFDS | 130 µM | 2 of 3 | 3 of 9 |
| GFTLNSYGIS | VIYSDINRTFYGDSVK | GRCAGTFDS | not detected | 0 of 3 | 1 of 9 |
| GFTLNSYGRS | VIYSDGRRNFYGDSVK | GRAATTFDS | 3.1 µM | 2 of 3 | 6 of 9 |
| GFTLNSYHIS | VIYSDGRRTFYGDSPK | GRAAGTFDS | not detected | 0 of 3 | 1 of 9 |
| GFTLHSYYIS | VIYDDGRRTFYGDSVK | GRAAGTFDS | 7.8 µM | 2 of 3 | 4 of 9 |
| GVTLNSYGPS | VIISDGRRTFYGDSVK | GRAAGTFDS | 29 µM | 2 of 3 | 3 of 9 |
| GFTLNSYGIS | AIYSDERRTFYGDSVK | GRAAGTFDS | not detected | 0 of 3 | 2 of 9 |
| GFTLNSYGIS | VVYSDGRRTHYGASVK | GRAAGTFDS | 160 µM | 1 of 3 | 1 of 9 |
| GQTLNSYGHS | VIYSDGRRTFYGHSVK | GRAAGTFDS | 4.2 µM | 1 of 3 | 1 of 9 |
| GFTWNSYGIS | VIMSDGRRTFYGDSVK | GRAAGTFDF | not detected | 0 of 3 | 0 of 9 |
| GFTLNSYGIS | VIYSDGRRTFYIDSVK | CRAANTFDS | not detected | 0 of 3 | 0 of 9 |
| GFTLNSYGIS | VIYSDGPRTFYMDSSK | GRAAGTFDS | not detected | 0 of 3 | 4 of 9 |
| GFTLNSYGIS | VVYSDGRRTFYGDVVK | GRKAGTFDS | not detected | 0 of 3 | 0 of 9 |
| GFTLNSYGIS | VIYSDGRRTFYVDSHK | LRAAGTFDS | 450 µM | 1 of 3 | 7 of 9 |
| GFTLNSYGIS | VVYSDGRRTFAGDSVK | GRAAGTFDS | 3.2 µM | 1 of 3 | 5 of 9 |
| GFTLNSYGIS | VIYSDGRRTGMGDSVK | TRAAGTFDS | 300 nM | 3 of 3 | 0 of 9 |
| GFTLNTYGIK | VAYSDGRRTFYGDSVK | GRAAGTFDS | 120 µM | 2 of 3 | 1 of 9 |
| GSTLNSYGIS | VIYSDGRRTFYGDKVK | GRAAGTFDS | 14 nM | 3 of 3 | 0 of 9 |
| GHTLISYGIS | VIYSDGRRTTYGDSVK | GRAAGTFDS | not detected | 0 of 3 | 0 of 9 |
| GFTLNSYGIS | VIGSDGRRTFYGDSVK | DRAAGTYDS | not detected | 0 of 3 | 0 of 9 |
| GFTKNSYGIS | VIYSDGRWTFYGDSVK | GRAAGTFDS | 33 µM | 2 of 3 | 3 of 9 |
| GFTLNSYGIS | VIYSDGRRQFYGDSVL | GRAAGTYDS | not detected | 0 of 3 | 0 of 9 |
| GFTLNSLGIS | VIYSDWRRTFYGDSVK | ARAAGTFDS | not detected | 0 of 3 | 1 of 9 |
| GFTLNSYGIS | VIYSDGRRTYYGDSVH | GRAAGTFLS | not detected | 0 of 3 | 1 of 9 |
| GFRLNSYGIS | VIYSDGRCTFYGDSVK | GRAAGTFCS | not detected | 0 of 3 | 1 of 9 |

Extract of 4 entries:

{"CDR-H1": "GFTLNSYGIS", "CDR-H2": "VWYSDGRRTFYGDSVA", "CDR-H3": "GRAAGTFDS", "Kd (apparent)": "73 µM", "seen in": "2 of 3", "empty controls": "1 of 9"}
{"CDR-H1": "GFTLNSYGIS", "CDR-H2": "VIYSDERRTFYGDSVK", "CDR-H3": "GRAAGAFDA", "Kd (apparent)": "not detected", "seen in": "0 of 3", "empty controls": "2 of 9"}
{"CDR-H1": "GFTLNSLGIS", "CDR-H2": "VIYSDWRRTFYGDSVK", "CDR-H3": "ARAAGTFDS", "Kd (apparent)": "not detected", "seen in": "0 of 3", "empty controls": "1 of 9"}
{"CDR-H1": "GFTYNSYGIS", "CDR-H2": "VIYSDGRRTFKGDSVK", "CDR-H3": "GRAAGTFDS", "Kd (apparent)": "130 µM", "seen in": "2 of 3", "empty controls": "3 of 9"}

For reference, the parent read 4.4 nM as the reference entry and 13 µM (one replicate of three) as a member of this library. Empty control strains, which show no peptide, gave a signal in 15% of pairings with library AAYL49; the median was 11 µM and 95% of these signals were weaker than 680 nM. No background was subtracted. Also given: how often the same scFv was detected with the empty control strains.

The measurements come from Engelhart et al. 2022 (doi:10.1038/s41597-022-01779-4) through the FLAb antibody collection.